Patent EP4837910A1, “ISOXAZOLINE COMPOUND AND PREPARATION METHOD THEREFOR, HERBICIDAL COMPOSITION, AND USE” (dated 2026)

Experiments:
[1] = test system: Monocotyledonous and dicotyledonous weed; test: Post-emergence test on weeds (greenhouse, spray tower); conditions: after 3 weeks of cultivation in a greenhouse, fresh weight control rate
[2] = test system: Monocotyledonous and dicotyledonous weed; test: Pre-emergence test on weeds (greenhouse, sprayed immediately after sowing); conditions: Dosage 240 g a.i./ha, after 4 weeks in greenhouse, fresh weight control rate
Zea mays = test: Pre-emergence test, crop damage (greenhouse, sprayed immediately after sowing); conditions: Dosage 240 g a.i./ha, after 4 weeks in greenhouse, fresh weight control rate
Description: Monocotyledonous and dicotyledonous weed seeds as well as major crop seeds were placed in plastic pots filled with soil and then covered with 0.5-2 cm of soil. The test compounds of the present invention were individually dissolved with acetone, then added with Tween® 80, diluted with certain amount of water to obtain solutions of certain concentrations, and sprayed immediately after sowing. After drug application, the experimental results on weeds were observed after 4 weeks of cultivation in a greenhouse. Table 3 Results of pre-emergence test on weeds

| SMILES | Amaranthus retroflexus, activity level of plant damage (growth control rate) ([1]; Dosage 60 g a.i./ha) | activity level of plant damage (growth control rate), Descurainia sophia [2] | activity level of plant damage (growth control rate), Lolium multiflorum [2] | activity level of plant damage (growth control rate), Zea mays (Zea mays) | Digitaria sanguinalis, activity level of plant damage (growth control rate) ([1]; Dosage 60 g a.i./ha) | Echinochloa crus-galli, activity level of plant damage (growth control rate) ([1]; Dosage 60 g a.i./ha) | activity level of plant damage (growth control rate), Digitaria sanguinalis [2] | activity level of plant damage (growth control rate), Setaria viridis [2] | Avena fatua, activity level of plant damage (growth control rate) ([1]; Dosage 240 g a.i./ha) | Echinochloa crus-galli, activity level of plant damage (growth control rate) ([1]; Dosage 240 g a.i./ha) | Avena fatua, activity level of plant damage (growth control rate) ([1]; Dosage 120 g a.i./ha) | Digitaria sanguinalis, activity level of plant damage (growth control rate) ([1]; Dosage 240 g a.i./ha) |
| --- | --- | --- | --- | --- | --- | --- | --- | --- | --- | --- | --- | --- |
| C=C[C@]1(C(=O)N[C@@H](C)C(=O)NOCC)CC(c2cc(Br)cc(C(F)(F)F)c2)=NO1 | 7 (Level 7: growth control rate greater than or equal to 80% and less than 90%) | 9 | 7 (Level 7: growth control rate greater than or equal to 80% and less than 90%) | 1 (Level 1: growth control rate less than 10%) | – | – | – | – | – | – | – | – |
| C=C(C)[C@]1(C(=O)N[C@@H](C)C(=O)NOCCCF)CC(c2cc(F)cc(F)c2)=NO1 | 8 (Level 8: growth control rate greater than or equal to 90% and less than 100%) | – | – | 2 (Level 2: growth control rate greater than or equal to 10% and less than 20%) | 8 (Level 8: growth control rate greater than or equal to 90% and less than 100%) | 8 (Level 8: growth control rate greater than or equal to 90% and less than 100%) | 9 | 9 | – | – | – | – |
| C=C(C)C1(C(=O)N[C@H](C(=O)NOCC)C(C)C)CC(c2cc(F)cc(F)c2)=NO1 (stereo partly drawn) | 5 (Level 5: growth control rate greater than or equal to 50% and less than 70%) | 5 (Level 5: growth control rate greater than or equal to 50% and less than 70%) | – | 1 (Level 1: growth control rate less than 10%) | 6 (Level 6: growth control rate greater than or equal to 70% and less than 80%) | 5 (Level 5: growth control rate greater than or equal to 50% and less than 70%) | 9 | 6 (Level 6: growth control rate greater than or equal to 70% and less than 80%) | – | – | – | – |
| C=C(C)[C@]1(C(=O)N[C@@H](C)C(=O)NOC(C)(C)C)CC(c2cc(F)cc(F)c2)=NO1 | – | 5 (Level 5: growth control rate greater than or equal to 50% and less than 70%) | 9 | 2 (Level 2: growth control rate greater than or equal to 10% and less than 20%) | 8 (Level 8: growth control rate greater than or equal to 90% and less than 100%) | 8 (Level 8: growth control rate greater than or equal to 90% and less than 100%) | 9 | 9 | – | – | – | – |
| C#CC[C@H](NC(=O)[C@@]1(C(=C)C)CC(c2cc(F)cc(F)c2)=NO1)C(=O)NOCC | 8 (Level 8: growth control rate greater than or equal to 90% and less than 100%) | – | – | 1 (Level 1: growth control rate less than 10%) | 8 (Level 8: growth control rate greater than or equal to 90% and less than 100%) | 6 (Level 6: growth control rate greater than or equal to 70% and less than 80%) | 9 | 8 (Level 8: growth control rate greater than or equal to 90% and less than 100%) | – | – | – | – |
| C#CC[C@H](NC(=O)[C@@]1(C=C)CC(c2cc(F)cc(F)c2)=NO1)C(=O)N(C)OC | – | 9 | 9 | 0 | – | – | 8 (Level 8: growth control rate greater than or equal to 90% and less than 100%) | 7 (Level 7: growth control rate greater than or equal to 80% and less than 90%) | 9 | – | – | – |
| C=C[C@]1(C(=O)N[C@@H](C)C(=O)N(C)OC)CC(c2cc(F)cc(Br)c2)=NO1 | – | 6 (Level 6: growth control rate greater than or equal to 70% and less than 80%) | 9 | 2 (Level 2: growth control rate greater than or equal to 10% and less than 20%) | – | – | 9 | 8 (Level 8: growth control rate greater than or equal to 90% and less than 100%) | 9 | – | – | – |
| C=C[C@]1(C(=O)N[C@@H](C)C(=O)NOCC(=C)C)CC(c2cc(F)cc(F)c2)=NO1 | – | 8 (Level 8: growth control rate greater than or equal to 90% and less than 100%) | 5 (Level 5: growth control rate greater than or equal to 50% and less than 70%) | 0 | – | – | – | – | – | 5 (Level 5: growth control rate greater than or equal to 50% and less than 70%) | – | – |
| C=C[C@]1(C(=O)N[C@@H](C)C(=S)N(C)OC)CC(c2cc(F)cc(F)c2)=NO1 | – | – | 6 (Level 6: growth control rate greater than or equal to 70% and less than 80%) | 2 (Level 2: growth control rate greater than or equal to 10% and less than 20%) | – | – | 9 | 9 | 8 (Level 8: growth control rate greater than or equal to 90% and less than 100%) | – | – | – |
| C=C[C@]1(C(=O)N[C@@H](C)C(=O)NOC)CC(c2cc(Cl)cc(C(F)(F)F)c2)=NO1 | – | – | 9 | 1 (Level 1: growth control rate less than 10%) | – | – | – | – | – | – | 9 | – |
| CON(C)C(=O)[C@H](C)NC(=O)C1(C(C)(F)F)CC(c2cc(F)cc(F)c2)=NO1 (stereo partly drawn) | 6 (Level 6: growth control rate greater than or equal to 70% and less than 80%) | 9 | 9 | 2 (Level 2: growth control rate greater than or equal to 10% and less than 20%) | – | – | 9 | 9 | – | – | – | – |
| C=C[C@]1(C(=O)N[C@H](C)C(=O)NOC)CC(c2cc(Cl)cc(Cl)c2)=NO1 | – | 9 | 9 | 1 (Level 1: growth control rate less than 10%) | – | – | 7 (Level 7: growth control rate greater than or equal to 80% and less than 90%) | – | 9 | – | – | – |
| C=C(C)[C@]1(C(=O)N[C@@H](C)C(=O)N(CC)OC)CC(c2cc(F)cc(F)c2)=NO1 | – | 9 | 7 (Level 7: growth control rate greater than or equal to 80% and less than 90%) | 2 (Level 2: growth control rate greater than or equal to 10% and less than 20%) | – | – | 9 | 9 | – | 8 (Level 8: growth control rate greater than or equal to 90% and less than 100%) | – | 9 |
| C=C[C@]1(C(=O)N[C@@H](C)C(=O)N(C)OC)CC(c2cc(Cl)cc(Cl)c2)=NO1 | – | 8 (Level 8: growth control rate greater than or equal to 90% and less than 100%) | 9 | 0 | – | – | 9 | 9 | – | – | 9 | – |
| C=C(C)[C@]1(C(=O)N[C@@H](C)C(=O)N(CCOC)OCC)CC(c2cc(F)cc(F)c2)=NO1 | 5 (Level 5: growth control rate greater than or equal to 50% and less than 70%) | – | – | 1 (Level 1: growth control rate less than 10%) | – | – | 9 | 6 (Level 6: growth control rate greater than or equal to 70% and less than 80%) | – | – | – | – |
| C=C[C@]1(C(=O)N[C@@H](C)C(=O)NOCC)CC(c2cc(F)cc(F)c2)=NO1 | – | 7 (Level 7: growth control rate greater than or equal to 80% and less than 90%) | 9 | 0 | – | – | – | – | – | – | – | – |
| C=C[C@]1(C(=O)N[C@@H](C)C(=O)NOCCC(=O)OC)CC(c2cc(F)cc(F)c2)=NO1 | – | 7 (Level 7: growth control rate greater than or equal to 80% and less than 90%) | 9 | 0 | – | – | – | – | – | – | – | – |
| C=C[C@]1(C(=O)N[C@@H](C)C(=O)N(C)OC)CC(c2ccc(F)c(F)c2)=NO1 | – | – | 9 | 0 | – | – | – | – | – | – | – | – |
